Data reported in ChEMBL document CHEMBL4251654, “Structure-based design of human immuno- and constitutive proteasomes inhibitors” (Eur J Med Chem, 2018).

Target: T1, Proteasome subunit beta type-10 (Homo sapiens) (UniProt P40306)
T1 sequence (whole entry): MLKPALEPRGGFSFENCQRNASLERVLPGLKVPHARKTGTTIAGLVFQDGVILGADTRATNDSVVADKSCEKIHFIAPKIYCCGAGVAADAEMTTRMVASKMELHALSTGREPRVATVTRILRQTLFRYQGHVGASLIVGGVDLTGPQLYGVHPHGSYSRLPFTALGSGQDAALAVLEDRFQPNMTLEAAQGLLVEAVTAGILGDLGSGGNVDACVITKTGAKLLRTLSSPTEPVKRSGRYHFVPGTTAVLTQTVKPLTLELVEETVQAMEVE
Assay: Activation of human 20S immunoproteasome beta-2 at 50 uM using BocLRR-AMC as substrate incubated for 15 mins measured for 45 mins by fluorescence assay relative to control
Outline: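 Purified human 20S proteasome (cCP or iCP), 0.3 nM, preincubated 15 min with compound (0.001-50 μM) in pH 8 buffer of 20 mM Tris-HCl, 10% glycerol, 0.005% Triton X-100, 2% DMSO. Then Boc-LRR-AMC at 50 μM was added. AMC fluorescence (ex 360/em 460 nm) was followed 45 min at 37 °C. Activity is relative to an untreated control.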

fold change (FC): 1.3
Structure (SMILES): CC(C)(C)OC(=O)N[C@@H](Cc1ccc(OCc2ccccc2)cc1)C(=O)N[C@@H](CC(N)=O)C(=O)N[C@@H](C[C@]1(O)C(=O)Nc2ccccc21)C(=O)NCc1ccccc1
